Protein sequences, listed by entry. Tags and fused reporters are not part of them. Lines headed by an entry give the natural chain unless they say otherwise; changes in a name come on top.
UniProt P01210: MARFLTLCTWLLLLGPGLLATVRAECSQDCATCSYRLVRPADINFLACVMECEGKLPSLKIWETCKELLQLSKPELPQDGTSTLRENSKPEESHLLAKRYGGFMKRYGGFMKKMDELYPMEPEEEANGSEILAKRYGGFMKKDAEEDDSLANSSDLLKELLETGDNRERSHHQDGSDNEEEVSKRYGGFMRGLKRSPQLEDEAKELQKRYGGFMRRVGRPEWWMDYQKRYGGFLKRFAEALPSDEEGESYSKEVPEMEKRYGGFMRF

According to patent publication US7097988B1 (ADVANCED RESEARCH AND TECHNOLOGY INSTITUTE, dated 2006):

Experiments:
[1] = target: T1, cloned human μ opioid receptor (Homo sapiens, UniProt P35372); test: biochemical; format: binding
T1 construct: the cDNA containing the open reading frame of the receptor was cloned downstream of the human cytomegalovirus promoter in the mammalian expression vector pcDNA3; expressed in transfected cells; host or cells: COS-7 (transient)

cloned rat μ receptor = cloned rat μ receptor (Rattus norvegicus, UniProt P33535, V245I); conditions: previously reported; cited from earlier work
[2] = target: rat μ opioid receptor (inhibition of adenylyl cyclase) (Rattus norvegicus, UniProt P33535, V245I); test: Cyclic AMP assay in transfected CHO cells, naive or chronically morphine-treated
mouse kappa receptor = mouse kappa receptor (Mus musculus, UniProt P33534); conditions: cited from earlier work
[3] = target: T2, cloned human mu opioid receptor (human, UniProt P35372 1-400); test: displacement of 1.3 nM [3H]DAMGO; membranes of COS-7 cells expressing the human µ receptor
T2 construct: Full-length receptor expressed from pcDNA3 in COS-7 cells (membranes) or from mRNA in Xenopus oocytes; also called human µ opioid receptor; human µ receptor

[4] = target: T2, cloned human mu opioid receptor; test: inhibition of 2 nM [3H]DAMGO binding; membranes of COS-7 cells expressing the human µ receptor
[5] = target: T2, cloned human mu opioid receptor; test: inhibition of [3H]DAMGO binding; membranes of COS-7 cells expressing the human µ receptor

CN1CC[C@@]23CCCC[C@@H]2[C@@H]1Cc1ccc(O)cc13 [dextrorphan]
Ki [1]: > 1000 nM

C[C@@H](NC(=O)[C@@H](N)Cc1ccc(O)cc1)C(=O)NCC(=O)N(C)[C@@H](Cc1ccccc1)C(=O)NCCO [DAMGO, [D-Ala^2, N-Me-Phe^4, Gly-ol^5]-enkephalin]
Kd (cloned rat μ receptor): 0.57 nM | EC50 [2]: ~30 nM

CCC(=O)C(CC(C)N(C)C)(c1ccccc1)c1ccccc1 (centres unmarked) [Methadone]
affinity for the mouse κ receptor (in words) (mouse kappa receptor): little or no affinity

YGGFM (peptide, UniProt P01210 100-104, looked up, mature) [Met-enkephalin]
IC50 [3]: 4.1 nM | Ki [3]: 2.2 nM

YGGFMTSEKSQTPLVTLFKNAIIKNAYKKGE (peptide, UniProt P01189 237-267, looked up, mature) [β-endorphin]
Ki [4]: 0.94 nM | Ki [5]: 0.94 nM
